Among the data in ChEMBL document CHEMBL5038588 (J Med Chem, 2021) are inhibition values, retold here.

Each structure is given as a SMILES string.

The subject of the assay is Tyrosine-protein kinase ABL1 (Homo sapiens), P00519 [T315I]. Conditions: dose 10.0 nM, time 2.5 hrs.

With `Cc1ccc(C(=O)Nc2ccc3c(c2)C(F)(F)C[C@@H]3N2CCN(C)CC2)cc1C#Cc1cnc2cccnn12`, the inhibition was 95%.
